Target: human epidermal growth factor receptor (EGFr), on cells (human) (UniProt P00533)
Assay: cell-based or functional assay

- IC50, luciferase reporter gene expression assay: 0.087 µg/mL
- Specific Activity (Weighted Mean), EGFr reporter gene expression assay: 98%
Substance: anti-EGFr wild type (fully human recombinant IgG2 monoclonal antibody, mAb E7.6.3)
